Measurements published in patent publication US11684675B2, “Dimeric collagen hybridizing peptides and methods of using” (University of Utah Research Foundation, priority 2015, dated 2023).

Biological target: denatured collagen
Assay: ELISA-like assay, Kd
Format: binding
Conditions: 25° C.
From the text: Dimeric CHP is able to hybridize effectively with denatured collagens with faster folding kinetics than current, monomeric CHPs. Surface plasmon resonance (SPR) was used to measure the ability of the CHPs to trap denatured collagen from solution.

Row | Substance | Kd
1 | (GPO)9-G3K^Biotin [b-9, reference compound] | 573 nM
2 | [(GPO)6G3)2KG [6d] | 621 nM
